{
  "sequences": {"note": "By UniProt entry, the sequences of proteins in these tests, tags left out. Residues count along the entry.", "UniProt P08069, 31-1367, species assumed": "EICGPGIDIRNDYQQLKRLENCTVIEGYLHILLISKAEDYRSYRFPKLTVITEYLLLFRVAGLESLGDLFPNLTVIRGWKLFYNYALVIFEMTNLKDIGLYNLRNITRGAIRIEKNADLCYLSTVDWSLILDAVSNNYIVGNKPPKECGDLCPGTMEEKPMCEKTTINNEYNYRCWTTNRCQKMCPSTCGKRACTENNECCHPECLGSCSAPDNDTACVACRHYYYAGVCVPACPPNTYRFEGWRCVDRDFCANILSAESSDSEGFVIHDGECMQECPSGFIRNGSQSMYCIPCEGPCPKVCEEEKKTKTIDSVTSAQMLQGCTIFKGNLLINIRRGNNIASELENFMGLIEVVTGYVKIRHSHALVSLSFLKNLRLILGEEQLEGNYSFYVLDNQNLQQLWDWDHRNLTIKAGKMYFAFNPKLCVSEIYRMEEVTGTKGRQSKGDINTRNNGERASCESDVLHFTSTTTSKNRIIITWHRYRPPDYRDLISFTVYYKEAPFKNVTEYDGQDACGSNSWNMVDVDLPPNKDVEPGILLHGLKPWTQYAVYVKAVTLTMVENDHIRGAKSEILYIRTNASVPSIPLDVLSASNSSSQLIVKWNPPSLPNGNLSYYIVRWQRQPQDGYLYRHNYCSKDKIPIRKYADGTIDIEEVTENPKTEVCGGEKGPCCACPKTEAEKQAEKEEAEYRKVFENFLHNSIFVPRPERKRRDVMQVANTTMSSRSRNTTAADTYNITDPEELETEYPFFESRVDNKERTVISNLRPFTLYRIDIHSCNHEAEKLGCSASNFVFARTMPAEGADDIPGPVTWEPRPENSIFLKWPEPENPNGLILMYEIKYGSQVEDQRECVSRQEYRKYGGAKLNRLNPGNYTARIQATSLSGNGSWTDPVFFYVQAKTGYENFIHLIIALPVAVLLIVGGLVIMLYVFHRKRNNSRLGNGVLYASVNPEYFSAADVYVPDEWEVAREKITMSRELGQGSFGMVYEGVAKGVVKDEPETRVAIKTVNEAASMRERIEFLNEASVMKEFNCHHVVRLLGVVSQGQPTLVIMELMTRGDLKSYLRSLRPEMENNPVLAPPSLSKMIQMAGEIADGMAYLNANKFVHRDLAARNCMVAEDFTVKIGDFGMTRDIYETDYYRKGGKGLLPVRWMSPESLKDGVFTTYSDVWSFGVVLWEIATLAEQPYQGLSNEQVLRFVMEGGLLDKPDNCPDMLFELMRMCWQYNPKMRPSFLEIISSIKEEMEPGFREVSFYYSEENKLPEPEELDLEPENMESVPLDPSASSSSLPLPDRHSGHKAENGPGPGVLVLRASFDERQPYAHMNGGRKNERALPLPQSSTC"},
  "source": "patent US20190160050A1",
  "about": "“SMALL MOLECULE INHIBITION FOR PREVENTING OR TREATING FIBROTIC DISEASES” (THE REGENTS OF THE UNIVERSITY OF CALIFORNIA, priority 2016, published 2019)",
  "origin": "cited, not measured here",
  "target": "IGF1R (Homo sapiens, UniProt P08069)",
  "conditions": "read-out: IC50 for suppression of IGF1R autophosphorylation",
  "data": [
    {"substance": "N-(5-chloro-2-methoxyphenyl)-N-(2-methyl-4-quinolinyl)urea [PQ 401]", "values": [
      {"measurement": "IC50", "value": 12, "unit": "µM"}
    ]}
  ]
}
